According to patent US5175163A, “Triazolyl thioamide derivates” (Egis Gyogyszergyar, priority 1989, dated 1992):

Test system: pentetrazole spasm
Assay: Inhibition of pentetrazole spasm
Type: in vivo
Details: white mice, Table III

`CN1C(=O)OC(C)(C)C1=O` [Trimethadion, reference compound] was tested. Which Therapeutical index did it give?
The Therapeutical index was 4.3.
